From ChEMBL document CHEMBL4396912 (Eur J Med Chem, 2019)

Chains of the proteins cited; added tags and fusions are not shown.
UniProt P14735, whole entry: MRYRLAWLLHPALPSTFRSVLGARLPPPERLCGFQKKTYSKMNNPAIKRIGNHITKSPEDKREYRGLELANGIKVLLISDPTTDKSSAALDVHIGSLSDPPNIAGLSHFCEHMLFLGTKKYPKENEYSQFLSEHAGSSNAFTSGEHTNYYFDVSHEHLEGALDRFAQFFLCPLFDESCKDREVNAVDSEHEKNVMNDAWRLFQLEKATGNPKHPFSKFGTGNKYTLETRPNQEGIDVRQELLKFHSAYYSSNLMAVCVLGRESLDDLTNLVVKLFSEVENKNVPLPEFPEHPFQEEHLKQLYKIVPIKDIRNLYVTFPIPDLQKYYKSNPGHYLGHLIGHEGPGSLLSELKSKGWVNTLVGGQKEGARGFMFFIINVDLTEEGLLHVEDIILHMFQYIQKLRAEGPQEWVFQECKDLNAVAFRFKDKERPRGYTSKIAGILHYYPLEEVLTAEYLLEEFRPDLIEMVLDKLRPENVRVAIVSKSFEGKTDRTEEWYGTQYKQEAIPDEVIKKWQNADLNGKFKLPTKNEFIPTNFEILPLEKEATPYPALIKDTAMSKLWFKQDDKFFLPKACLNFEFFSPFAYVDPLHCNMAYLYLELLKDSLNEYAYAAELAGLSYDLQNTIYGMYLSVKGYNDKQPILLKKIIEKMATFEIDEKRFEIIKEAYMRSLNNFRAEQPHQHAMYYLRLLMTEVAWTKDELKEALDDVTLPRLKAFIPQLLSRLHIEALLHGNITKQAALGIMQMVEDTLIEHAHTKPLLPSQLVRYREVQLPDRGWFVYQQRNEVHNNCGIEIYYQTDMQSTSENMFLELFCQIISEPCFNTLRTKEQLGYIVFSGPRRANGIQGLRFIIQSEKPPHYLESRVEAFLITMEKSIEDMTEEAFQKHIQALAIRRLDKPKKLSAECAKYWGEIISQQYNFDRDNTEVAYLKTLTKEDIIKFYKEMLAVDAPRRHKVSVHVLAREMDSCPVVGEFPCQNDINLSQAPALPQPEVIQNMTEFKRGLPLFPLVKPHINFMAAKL

Target: Insulin-degrading enzyme (Homo sapiens) (UniProt P14735)
Conditions: HepG2, 30 uM

**Q.** Which T does the source give for `O=C(C[C@@H](Cc1ccc2ccccc2c1)n1cc(CNC(=O)c2ccc(F)cc2)nn1)NO` here?
**A.** 54.4 °C
